{"sequences": {"note": "Sequences of proteins named here, by UniProt entry; tags and fusion partners are left off. Residues count along the entry.", "UniProt P40763, 2-770 limits assumed": "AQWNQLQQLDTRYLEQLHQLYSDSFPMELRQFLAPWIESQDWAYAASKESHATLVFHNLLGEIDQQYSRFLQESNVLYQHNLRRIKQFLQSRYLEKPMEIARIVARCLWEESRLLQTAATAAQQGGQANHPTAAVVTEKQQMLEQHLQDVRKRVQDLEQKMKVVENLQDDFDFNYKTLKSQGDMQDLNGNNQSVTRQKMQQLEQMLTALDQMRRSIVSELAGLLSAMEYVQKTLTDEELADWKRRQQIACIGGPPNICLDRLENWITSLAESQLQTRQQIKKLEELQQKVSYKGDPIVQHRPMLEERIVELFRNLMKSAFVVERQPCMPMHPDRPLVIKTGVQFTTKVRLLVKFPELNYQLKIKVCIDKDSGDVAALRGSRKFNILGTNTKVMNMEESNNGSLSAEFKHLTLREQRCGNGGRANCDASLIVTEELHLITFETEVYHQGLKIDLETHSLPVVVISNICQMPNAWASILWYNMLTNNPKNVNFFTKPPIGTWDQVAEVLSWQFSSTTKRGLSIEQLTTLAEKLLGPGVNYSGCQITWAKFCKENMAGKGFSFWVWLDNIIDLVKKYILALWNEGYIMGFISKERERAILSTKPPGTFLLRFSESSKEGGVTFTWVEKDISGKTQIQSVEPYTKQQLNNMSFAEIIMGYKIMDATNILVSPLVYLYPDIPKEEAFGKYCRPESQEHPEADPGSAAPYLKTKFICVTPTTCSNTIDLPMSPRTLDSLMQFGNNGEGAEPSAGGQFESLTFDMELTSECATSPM"}, "source": "patent US10351596B2", "about": "“γ-AA-peptide STAT3/DNA inhibitors and methods of use” (H. Lee Moffitt Cancer Center and Research Institute, Inc., priority 2014, dated 2019)", "target": "T1, STAT3-DNA binding (Homo sapiens, UniProt P40763)", "T1 construct": "Nuclear extracts from MDA-MB-468 human breast cancer cells; endogenous in cells; host or cells: MDA-MB-468 human breast cancer cells (nuclear extract)", "test": "STAT3-DNA binding filter plate assay with nuclear extract from MDA-MB-468 cells", "type": "biochemical", "conditions": "MDA-MB-468 nuclear extract", "experimental": "Nuclear extracts from MDA-MB-468 human breast cancer cells were incubated with a biotin-conjugated STAT3 probe and tested for STAT3 DNA binding using a filter plate assay. Briefly, nuclear extract preparation was carried out as previously described (Zhang, et al., Orally bioavailable small-molecule inhibitor of transcription factor Stat3 regresses human breast and lung cancer xenografts. Proceedings of the National Academy of Sciences of the United States of America 2012, 109, 9623-9628). The STAT3-DNA binding filter plate assay was performed following the manual of the filter plate assay kit (Signosis, Sunnyvale, Calif.), as described previously (Zhang, et al., A Novel Inhibitor of STAT3 Homodimerization Selectively Suppresses STAT3 Activity and Malignant Transformation. Cancer Research 2013, 73, 1922-1933). The TF Binding buffer was mixed with the STAT3 probe (biotin labeled STAT3 DNA binding sequence) and nuclear extract and incubated at 16° C. for 30 minutes to form the STAT3-DNA complex. […] Eluted probes were then hybridized into 96-well hybridization plates for quantitative analysis. The captured STAT3 probe was detected by conjugation with streptavidin-HRP. The chemiluminescence of each well was read using 2104 EnVisionR Multilabel Reader (Perkin Elmer,) within 5 minutes after mixture with substrates. […]"}
{"substance": "GpYLPQTV (phosphotyrosine; listed as Homo sapiens)", "values": [{"measurement": "inhibition of STAT3-DNA binding", "setting": "at 10 μM", "value": 40, "unit": "%"}, {"measurement": "inhibition of STAT3-DNA binding", "setting": "at 100 μM", "value": 60, "unit": "%"}]}
